# Experimental data taken from patent US20260207554A1 (priority 2022, published 2026).
# Experiment: dynamic vapor sorption (DVS)
substance,measurement,setting,value
"(1r,4r)-6′-fluoro-N,N-dimethyl-4-phenyl-4′,9′-dihydro-3′H-spiro[cyclohexane-1,1′-pyrano[3,4,b]indol]-4-amine",relative humidity of transformation ansolvate→hemi-hydrate,DVS second cycle,> 70 % r. h.
same,relative humidity of transformation hemi-hydrate→ansolvate,DVS second cycle,< 38 % r. h.
same,hygroscopicity class,"DVS, two cycles",hygroscopic (hygroscopic (h): increase of the mass is less than 15% and equal or greater than 2%)
same,Δm: change in mass,at 85% r. h.,3-4%
